US9302989B2 (priority 2010, dated 2016)

By UniProt entry, the sequences of proteins in these tests, tags left out. Where a name states a change or a piece, a line headed by the entry shows the natural chain unless it says otherwise.
UniProt P43490: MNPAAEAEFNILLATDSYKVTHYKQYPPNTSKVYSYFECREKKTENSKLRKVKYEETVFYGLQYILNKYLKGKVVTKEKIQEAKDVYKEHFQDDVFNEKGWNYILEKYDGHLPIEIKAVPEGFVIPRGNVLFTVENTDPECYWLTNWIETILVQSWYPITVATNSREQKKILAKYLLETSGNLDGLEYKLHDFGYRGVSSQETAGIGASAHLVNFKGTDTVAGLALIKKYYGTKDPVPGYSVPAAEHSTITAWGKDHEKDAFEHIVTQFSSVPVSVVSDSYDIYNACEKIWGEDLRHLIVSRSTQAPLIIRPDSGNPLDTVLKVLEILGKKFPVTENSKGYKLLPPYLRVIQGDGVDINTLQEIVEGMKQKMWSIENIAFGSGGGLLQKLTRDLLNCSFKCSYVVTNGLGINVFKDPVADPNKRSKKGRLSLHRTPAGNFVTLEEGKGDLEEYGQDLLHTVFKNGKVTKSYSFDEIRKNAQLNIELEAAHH

Molecular target: NAMPT (Homo sapiens (Human), UniProt P43490)
Conditions: read-out: TR-FRET Binding IC50 (μM) probe 1

SMILES | IC50
COc1cc2c(cc1OC)CN(C(=O)Nc1ccc(C(=O)NCCCc3ccccc3)cc1)C2 [Example 268, 5,6-dimethoxy-N-{4-[(3-phenylpropyl)carbamoyl]phenyl}-1,3-dihydro-2H-isoindole-2-carboxamide] | 2.85 µM
O=C(NCCCOc1ccc(Cl)cc1)c1ccc(NC(=O)N2Cc3ccccc3C2)cc1 [Example 269, N-(4-{[3-(4-chlorophenoxy)propyl]carbamoyl}phenyl)-1,3-dihydro-2H-isoindole-2-carboxamide] | 3.62 µM
O=C(Nc1ccc(OC(F)(F)F)cc1)c1ccc(NC(=O)N2Cc3ccccc3C2)cc1 [Example 270, N-(4-{[4-(trifluoromethoxy)phenyl]carbamoyl}phenyl)-1,3-dihydro-2H-isoindole-2-carboxamide] | 4.7 µM
O=C(Nc1nc(-c2ccccc2)cs1)c1ccc(NC(=O)N2Cc3ccccc3C2)cc1 [Example 271, N-{4-[(4-phenyl-1,3-thiazol-2-yl)carbamoyl]phenyl}-1,3-dihydro-2H-isoindole-2-carboxamide] | 11.1 µM
CCCNC(=O)c1ccc(NC(=O)N2Cc3ccc(C(=O)OC)cc3C2)cc1 [Example 272, methyl 2-{[4-(propylcarbamoyl)phenyl]carbamoyl}isoindoline-5-carboxylate] | 0.0816 µM
CCCNC(=O)c1ccc(NC(=O)N2Cc3ccc(C(=O)O)cc3C2)cc1 [Example 273, 2-{[4-(propylcarbamoyl)phenyl]carbamoyl}isoindoline-5-carboxylic acid] | 1 µM
CCCNC(=O)c1ccc(NC(=O)N2Cc3ccc(N)cc3C2)cc1 [Example 274, 5-amino-N-[4-(propylcarbamoyl)phenyl]-1,3-dihydro-2H-isoindole-2-carboxamide] | 1.03 µM
CCCNC(=O)c1ccc(NC(=O)N2Cc3ccc(CO)cc3C2)cc1 [Example 275, 5-(hydroxymethyl)-N-[4-(propylcarbamoyl)phenyl]-1,3-dihydro-2H-isoindole-2-carboxamide] | 0.197 µM
CCCNC(=O)c1ccc(NC(=O)N2Cc3ccc(NC(=O)C(C)(C)O)cc3C2)cc1 [Example 277, 5-[(2-hydroxy-2-methylpropanoyl)amino]-N-[4-(propylcarbamoyl)phenyl]-1,3-dihydro-2H-isoindole-2-carboxamide] | 1.02 µM
CCCNC(=O)c1ccc(NC(=O)N2Cc3ccc(NC(C)=O)cc3C2)cc1 [Example 278, 5-acetamido-N-[4-(propylcarbamoyl)phenyl]-1,3-dihydro-2H-isoindole-2-carboxamide] | 0.385 µM
CCCNC(=O)c1ccc(NC(=O)N2Cc3ccc(NC(=O)CN(C)C)cc3C2)cc1 [Example 279, 5-[(N,N-dimethylglycyl)amino]-N-[4-(propylcarbamoyl)phenyl]-1,3-dihydro-2H-isoindole-2-carboxamide] | 1.91 µM
CCCNC(=O)c1ccc(NC(=O)N2Cc3ccc(-c4cn[nH]c4)cc3C2)cc1 [Example 281, N-[4-(propylcarbamoyl)phenyl]-5-(1H-pyrazol-4-yl)-1,3-dihydro-2H-isoindole-2-carboxamide] | 0.0383 µM
CCCNC(=O)c1ccc(NC(=O)N2Cc3ccc(NC(=O)COC)cc3C2)cc1 [Example 282, 5-[(methoxyacetyl)amino]-N-[4-(propylcarbamoyl)phenyl]-1,3-dihydro-2H-isoindole-2-carboxamide] | 0.14 µM
CCCNC(=O)c1ccc(NC(=O)N2Cc3ccc(NS(C)(=O)=O)cc3C2)cc1 [Example 283, 5-[(methylsulfonyl)amino]-N-[4-(propylcarbamoyl)phenyl]-1,3-dihydro-2H-isoindole-2-carboxamide] | 0.387 µM
O=C(NCc1ccc(Cl)cc1)c1ccc(NC(=O)N2Cc3ccncc3C2)cc1 [Example 286, N-{4-[(4-chlorobenzyl)carbamoyl]phenyl}-1,3-dihydro-2H-pyrrolo[3,4-c]pyridine-2-carboxamide] | 0.00206 µM
O=C(Nc1ccc(C(=O)N2CCN(c3ccccn3)CC2)cc1)N1Cc2ccncc2C1 [Example 287, N-(4-{[4-(pyridin-2-yl)piperazin-1-yl]carbonyl}phenyl)-1,3-dihydro-2H-pyrrolo[3,4-c]pyridine-2-carboxamide] | 0.00435 µM
O=C(NCCCc1ccccc1)c1ccc(NC(=O)N2Cc3ccncc3C2)cc1 [Example 288, N-{4-[(3-phenylpropyl)carbamoyl]phenyl}-1,3-dihydro-2H-pyrrolo[3,4-c]pyridine-2-carboxamide] | 0.00447 µM
CC(C)CCNC(=O)c1ccc(NC(=O)N2Cc3ccncc3C2)cc1 [Example 290, N-{4-[(3-methylbutyl)carbamoyl]phenyl}-1,3-dihydro-2H-pyrrolo[3,4-c]pyridine-2-carboxamide] | 0.0104 µM
O=C(CCC(F)(F)F)Nc1ccc(NC(=O)N2Cc3ccccc3C2)cc1 [Example 291, N-{4-[(4,4,4-trifluorobutanoyl)amino]phenyl}-1,3-dihydro-2H-isoindole-2-carboxamide] | 0.0277 µM
CCOCCC(=O)Nc1ccc(NC(=O)N2Cc3ccccc3C2)cc1 [Example 292, N-{4-[(3-ethoxypropanoyl)amino]phenyl}-1,3-dihydro-2H-isoindole-2-carboxamide] | 0.0361 µM
O=C(CCCc1ccccc1)Nc1ccc(NC(=O)N2Cc3ccccc3C2)cc1 [Example 293, N-{4-[(4-phenylbutanoyl)amino]phenyl}-1,3-dihydro-2H-isoindole-2-carboxamide] | 0.00877 µM
O=C(COCc1ccccc1)Nc1ccc(NC(=O)N2Cc3ccccc3C2)cc1 [Example 295, N-(4-{[(benzyloxy)acetyl]amino}phenyl)-1,3-dihydro-2H-isoindole-2-carboxamide] | 0.0141 µM
O=C(CCc1ccccc1)Nc1ccc(NC(=O)N2Cc3ccccc3C2)cc1 [Example 296, N-{4-[(3-phenylpropanoyl)amino]phenyl}-1,3-dihydro-2H-isoindole-2-carboxamide] | 0.0247 µM
O=C(CCOc1ccccc1)Nc1ccc(NC(=O)N2Cc3ccccc3C2)cc1 [Example 297, N-{4-[(3-phenoxypropanoyl)amino]phenyl}-1,3-dihydro-2H-isoindole-2-carboxamide] | 0.012 µM
O=C(CNC(=O)c1ccco1)Nc1ccc(NC(=O)N2Cc3ccccc3C2)cc1 [Example 298, N-(4-{[N-(2-furoyl)glycyl]amino}phenyl)-1,3-dihydro-2H-isoindole-2-carboxamide] | 0.097 µM
O=C(CCCc1cccs1)Nc1ccc(NC(=O)N2Cc3ccccc3C2)cc1 [Example 299, N-(4-{[4-(2-thienyl)butanoyl]amino}phenyl)-1,3-dihydro-2H-isoindole-2-carboxamide] | 0.00673 µM
O=C(CCC(=O)c1ccccc1)Nc1ccc(NC(=O)N2Cc3ccccc3C2)cc1 [Example 300, N-{4-[(4-oxo-4-phenylbutanoyl)amino]phenyl}-1,3-dihydro-2H-isoindole-2-carboxamide] | 0.0103 µM
O=C(CNC(=O)c1ccccc1)Nc1ccc(NC(=O)N2Cc3ccccc3C2)cc1 [Example 301, N-{4-[(N-benzoylglycyl)amino]phenyl}-1,3-dihydro-2H-isoindole-2-carboxamide] | 0.0546 µM
O=C(CCCOc1ccccc1)Nc1ccc(NC(=O)N2Cc3ccccc3C2)cc1 [Example 302, N-{4-[(4-phenoxybutanoyl)amino]phenyl}-1,3-dihydro-2H-isoindole-2-carboxamide] | 0.0157 µM
CCC(=O)Nc1ccc(NC(=O)N2Cc3ccccc3C2)cc1 [Example 303, N-[4-(propionylamino)phenyl]-1,3-dihydro-2H-isoindole-2-carboxamide] | 0.251 µM
